Ab-14 light chain CDR variants: yeast mating affinities

Target: peptide PDVDLGDISGINAS, taken from heptad repeat 2 (HR2) of SARS-CoV-2 spike.

Ab-14 is the parent antibody, in scFv form: VH, then the linker GGGGSGGGGSGGGGS, then VL. The heavy chain is unchanged in all variants.
VH: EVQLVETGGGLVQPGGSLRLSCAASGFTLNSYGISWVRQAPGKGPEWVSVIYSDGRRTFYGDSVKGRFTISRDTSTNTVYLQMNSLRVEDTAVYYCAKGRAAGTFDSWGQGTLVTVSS
VL: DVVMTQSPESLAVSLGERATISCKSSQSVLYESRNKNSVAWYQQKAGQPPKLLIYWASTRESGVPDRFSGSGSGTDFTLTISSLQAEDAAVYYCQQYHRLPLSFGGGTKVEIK

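The parent was found by panning a naive human phage display library on the peptide. This is the validation round: designs drawn from the data on random variants, tested in the same kind of assay. Group labels follow the data file (Ctrl: baseline library sampled from a position-specific scoring matrix, with some repeated check sequences; En: ensemble of fine-tuned language models; GP: Gaussian process model; GPLM: also part of the Gaussian process libraries; HC: hill climbing; Gen: genetic algorithm; Gibbs: Gibbs sampling; a sequence that several methods proposed may carry one label only). Affinity was read by AlphaSeq, a pooled yeast mating assay with surface-displayed partners. The frequency of each diploid, read from paired DNA barcodes, reflects how well the two displayed proteins bind. Each replicate has its own calibration line, from reference interactions of the BCL2 family. The assay was run in six technical replicates.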

The parent's light chain CDRs are KSSQSVLYESRNKNSVA, WASTRES, QQYHRLPLS; each variant's own CDRs replace them letter for letter. Values are log10 of the apparent Kd in nM; lower means stronger binding. Replicates are averaged; those with no signal do not enter the mean. Where no diploid with the target was found in any replicate, the entry reads "nd": below detection, most likely a poor binder, though not proof of it.

CDR-L1,CDR-L2,CDR-L3,group,"mean, log10 nM",detected
KLEQSQLYESRNKNSVA,NASTRES,QQYHRLPLS,GP_Gen,-0.50,6/6
KSSQSVLYESRNKNSVA,QASTRNS,QQYHRLTLS,Ctrl,1.37,6/6
KFPQSQLYESRNKNSVA,NASQRES,QQYHRLPLS,GP_Gen,0.41,6/6
HSSQSVLYESTLKNSVA,RASTRES,SQYHRAPLS,Ctrl,nd,0/6
KISMLINQTFQTENNVA,EMVTREK,QQYHRLPLS,En_Gen,1.87,5/6
KVSQSVLYESRNKNSVA,EASTREK,QQYHRLPLS,GP_Gen,0.20,6/6
TISQSFLMENQFKNSVA,QANTRES,QCYDRLPLS,En_HC,1.34,6/6
QLSSITGHMSMIKNNVA,EMETREE,QQYERLPLS,En_Gen,0.05,6/6
MISQMFDGLSTSKNPVA,QVSTREE,QQYHRLPLS,En_HC,1.57,6/6
MISQVMNTLTRYGNNVA,DLAEREN,QQYFRLPLS,En_Gen,nd,0/6
KFEQLDMYEQRNKNSVA,NASQRED,QQYHRLPLS,GP_Gibbs,-0.30,6/6
MMSSIMGYESRHINNVA,QTSTREA,QQYDRLPLI,En_Gen,0.26,6/6
KITMTMRFEQKNKNNIA,EVSTRSK,QQYVRLPLA,En_Gen,0.29,6/6
KMSQSNDYEERNCNAVA,NASQREE,QQYHRLPLS,GP_Gibbs,0.22,6/6
KLQQSVLYESRNKNNVA,DASTRED,QQYHRLPLS,GP_HC,-0.54,6/6
MISQVMNTLTRHGNNVA,DLQERED,QQYFRLPLS,En_Gen,1.03,6/6
KWSQSVLYESHNKNSVA,HATTRES,QQYHRLPLS,Ctrl,2.43,6/6
KSSQSVLYESMNKNSVA,WASTRVS,QQYHRLPLS,Ctrl,0.61,6/6
KLSQSHLYESRNKNSVA,DASTRCS,QQYHRLPLS,GP_Gen,0.06,6/6
KVQQSNLYESRNKNSVA,NASQRES,QQYHRLPLS,GP_Gen,-0.21,6/6
KVSQSQLYESRNKNAVA,NASTRES,QQYHRLPLS,GP_Gen,-0.25,6/6
KLSQSVLYESRNKNSVA,QASTRES,QDYHRLPLS,GP_Gen,-0.10,6/6
KMSQSMLYESRNKNSVA,NASQRES,QQYHRLPLS,GP_Gen,-0.25,6/6
KMSQGWLYESRNKNSVA,GASTRED,QQYHRLPLS,GP_HC,-0.30,6/6
KSAQSVLYESRNKNNVA,HASTRED,QQYARLPLS,GP_HC,-0.29,6/6
KFSQSVEYESRNKNSVA,WASTRES,QQYHRLPLS,Ctrl,0.81,6/6
ILSQSMLYESRNKNSVA,NASQRWS,QQYHRLPLS,GP_Gibbs,-0.10,6/6
KSGNGVLYESRNKNSVA,GASTRES,QQYHRLPLS,GPLM_HC,0.11,6/6
KSSISQLIESRNKNSVA,EASTRES,QQYHRLPLS,GP_HC,-0.03,6/6
NIVGRVNGKGTTTKNIA,DAEFRAG,QQYSRLPLS,En_Gibbs,0.21,6/6
MMSQVTGQGQRHRNNVA,QTSTREP,QQYDHLPLI,En_Gen,1.64,6/6
MIAQGLRGVGRNKNSVA,NAQTRLS,QHYHRLPLS,En_HC,1.17,6/6
KYSQSMLYESRNKNSVA,WASTRAS,QQYHRLPRS,Ctrl,2.11,3/6
KSSQSVLYESRNHNSVA,AASTVES,QQYHRLPLS,Ctrl,0.86,6/6
KLEQSTLYESRNKNSVA,NASQRES,QQYKRLPLS,GP_Gibbs,-0.07,6/6
TISQLMNMGQFAINSVA,QASIRNM,QQYDRLPLM,En_Gen,1.11,4/6
MISQVMNTLTRQGNNVA,DLAEREE,QQYFRLPLS,En_Gen,1.62,4/6
NISHFMDVTAKNINNVA,EMTMREE,QQYHHLPLS,En_Gen,nd,0/6
KQSQSVLYESRNKNNVA,MASTRES,QQYHRLPLS,GP_HC,0.30,6/6
KFGQSVLMGSYVRNSVA,QSETREN,QQYDRLPLS,En_HC,0.79,6/6
MMGMTVINQQNMIQNVA,DMNERFA,QQYFSLPLS,En_Gibbs,1.45,6/6
KDSQSVQTESRNKNSVA,SASTRES,QQYHRLPLS,Ctrl,0.95,6/6
KSSQSFLSESRWKNSVA,DASQRES,QQYHRLPLS,GP_HC,-0.07,6/6
MISDLTMYGSRNKNSVA,DLSMRGS,QQYHRLPLS,En_HC,0.25,6/6
KLSQSQLYESRNKNSVA,NASQREV,QQYHRLPLS,GP_Gen,-0.35,6/6
NMFDKDYLDDNNENNIA,ERTARGL,QQYSRLPLT,En_Gibbs,0.53,6/6
KLSQGVLMESRNKNSVA,EASQREE,QQYHRLPLS,GP_Gibbs,-0.66,6/6
KSSQSTLYDSREKNSVA,WASTRES,QQYHRLPDS,Ctrl,nd,0/6
QMQLNQIEGNQHQNSIA,GESEADM,QHYARLPLT,En_Gibbs,nd,0/6
KLSQSVEYESRNKNSVA,EASTRCS,QQYHRLPLS,GP_Gen,0.01,6/6
KIGMTLNQLEHKKNNVA,DLVERAN,QQYFRLPLS,En_Gen,0.19,6/6
KLGYPSYGEVNGKNNIA,EMDQLTF,QQYSHLPLT,En_Gibbs,2.70,5/6
KVSEFMRGLMQRKDSIA,DNVTRVN,QQYDRLPLS,En_Gen,1.23,6/6
KQQQSGMMESRNQNSVA,QASTRLS,QQYHRLPLS,GP_Gibbs,0.54,6/6
IVSQLMMWGMHAKNSIA,EAVTRVN,QQYDRLPLF,En_Gen,1.75,4/6
HMSMLTLGGMRHRNSVA,QMTTREN,QQYDRLPLA,En_Gen,1.27,6/6
KSRQSVLYESRNKNSVA,WASTRES,QQYHRLPLS,Ctrl,2.37,4/6
KSSVSVLFESRNKNSVA,NASTRES,QQYHRLPLS,GP_HC,0.07,6/6
KLQQSWLYGSRNANSVA,NASQREE,QQYHRLPLS,GP_Gibbs,-0.10,6/6
KLPQSMNYESRNKNNVA,SASCRES,QQYHRLPLS,GP_Gibbs,-0.16,6/6

The 4 strongest on average among those seen in every replicate, once more:

CDR-L1,CDR-L2,CDR-L3,group,"mean, log10 nM",detected
KLSQGVLMESRNKNSVA,EASQREE,QQYHRLPLS,GP_Gibbs,-0.66,6/6
KLQQSVLYESRNKNNVA,DASTRED,QQYHRLPLS,GP_HC,-0.54,6/6
KLEQSQLYESRNKNSVA,NASTRES,QQYHRLPLS,GP_Gen,-0.50,6/6
KLSQSQLYESRNKNSVA,NASQREV,QQYHRLPLS,GP_Gen,-0.35,6/6

Of ten entries with the parent sequence, four were seen in most replicates (averages 0.34 to 2.37), three in one and three in none, so single entries are noisy. The range of this assay differs from that of the first round, and the authors advise against merging the two. Three control strains display no target. For all light chain designs, 4% of the pairings with them gave a signal, with a median of 2.64 and one signal in twenty below 1.59, so weak values seen in few replicates may be background. The authors averaged sequences with at least three values out of six and counted those with two or fewer as poor binders.

Reference: Li et al. 2023, doi:10.1038/s41467-023-39022-2. File: FLAb, binding data.